According to patent US20060159616:

Tests used:
[1] = tested on: T1, V-P-R-AMC fluorogenic substrate
T1 sequence: VPR

[2] = tested on: T2, F-S-R-AMC fluorogenic substrate
T2 sequence: FSR

Trypsin
cleavage of fluorogenic substrate [1]: Trypsin was highly active with both fluorogenic substrates, even at amounts as low as 1 ng
cleavage of fluorogenic substrate [2]: Trypsin was highly active with both fluorogenic substrates, even at amounts as low as 1 ng
